Reference: patent US10014546B2 (priority 2012, dated 2018)

Conditions: pH 10

Q: Which “E1/2, V vs. RHE” value does the source give for `CC1[O][Ti-2]23([O]CC(=O)[O]2)([O]C1=O)[O]C(=O)C(C)[O]3` (stereo not shown) here?
A: The value was −0.50 V vs. RHE.
